The target of the assay is canine MC5R (Canis lupus familiaris, UniProt A0A8I3MI44). The note with it: read-out: EC50 of α-MSH stimulated cAMP accumulation; clone C9, canine MC5R/HEK293 cells.

The chains behind the UniProt entries cited, without tags or fusion partners. Residues count along the entry.
UniProt A0A8I3MI44, 1-325: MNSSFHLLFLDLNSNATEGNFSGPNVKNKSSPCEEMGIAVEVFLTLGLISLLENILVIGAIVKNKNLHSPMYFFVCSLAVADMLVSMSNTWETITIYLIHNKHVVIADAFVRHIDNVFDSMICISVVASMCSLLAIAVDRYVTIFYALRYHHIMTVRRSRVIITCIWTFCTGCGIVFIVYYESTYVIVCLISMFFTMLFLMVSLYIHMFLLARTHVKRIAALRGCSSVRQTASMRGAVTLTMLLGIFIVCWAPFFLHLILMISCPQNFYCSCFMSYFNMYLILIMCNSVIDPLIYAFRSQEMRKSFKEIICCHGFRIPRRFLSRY

Usually EC50 stands for the concentration giving half of the maximal effect. Take “α-melanocyte stimulating hormone [α-MSH]”: the EC50 is 5 nM.

The values above are taken from US20030110518A1, “Melanocortin-5 receptor sequences and uses thereof” (priority 2001, published 2003).
